Reference: US20260166170A1, “ANTIBODY DRUG CONJUGATE COMPRISING NMT INHIBITOR AND ITS USE” (MyricX Pharma Limited, priority 2022, published 2026)

Experiments:
[1] = system: NCI-N87 human gastric xenograft; assay: Gastric cancer xenograft model; format: in vivo, female BALB/c nude mice; settings: for animals with significant body weight loss (>10%): regained by next measurement; for tumour volumes compared to vehicle alone: all concentrations tested (2.5 mg/kg or 5 mg/kg; Isotype control 5 mg/Kg)
Method: In this study, 143 mice were inoculated subcutaneously in the right flank region with 1×10^7 viable NCI-N87 tumour cells resuspended in 0.1 mL of PBS mixed with Matrigel (1:1) for tumour development. 102 mice were assigned to 9 treatment groups on study day 0 when tumour volumes averaged 168.08 mm^3. […] The study was terminated on study Day 28.
Tumour volumes in mice were measured three times per week and tumour volume was calculated using the formula 0.5 (L×W2). The mean tumour volumes (+SEM) for each study group at each measurement are shown in FIG. 5 and FIG. 6. • ΔTGI %=((mean(C)−mean(C0))−(mean(T)−mean(T0)))/(mean(C)−mean(C0))×100% where T is the mean tumour volume of the treated group on the measurement day and TO is the mean tumour volume on Study Day 0. C is the mean tumour volume of the control Group 1 mice on the measurement day and C0 is the mean tumour volume on Study Day 0.
During the study, body weights were measured three times weekly for all animals. Animals were given Diet Gel for the entire duration on the study. The mean body weights for each group during the dosing phase are presented in FIG. 7A (2.5 mpk study) and FIG. 7B (5 mpk study).

[2] = system: HER2 negative breast cancer cell line, MCF7; assay: In vitro cytotoxicity, IncuCyte Sytox Green; format: cell-based; settings: concentration up to 50 nM; imaged for ten days
Method: (§1) Cells were plated in 96 well plates at 10% confluency (2000 for MCF7). […] Plates were imaged every four hours for ten days in the IncuCyte S3. Images for % phase (confluence) and green (Sytox Green) were collected and analysed using the IncuCyte software 2022A. Data are presented as green area normalised to phase area (μm^2) over time whilst cells are in log phase proliferation.
(§2) Trastuzumab was conjugated to NMT inhibitor 1 (ADC Example 8) and tested for its cytotoxic activity against a HER2 negative breast cancer cell line, MCF7 in an in vitro assay. Cells were plated in 96 well plates at 10% confluency (2000 for MCF7). The following day cells were treated with ADC Example 8 at 50 nM, 3.13 nM, and 0.2 nM and controls in 250 nM Sytox Green containing medium. Plates were imaged every four hours for ten days in the IncuCyte S3. Images for % phase (confluence) and green (Sytox Green) were collected and analysed using the IncuCyte software 2022A. Data are presented as green area normalised to phase area (μm^2) over time whilst cells are in log phase proliferation.

[3] = system: HER2 positive breast cancer cell line, BT474; assay: In vitro cytotoxicity, IncuCyte Sytox Green; format: cell-based; settings: 50 nM, 3.3 nM, 0.2 nM; imaged for ten days
Method: as §1, with “(8000” for “(2000”, “BT474).” for “MCF7).”
as §2, with “positive” for “negative”, “BT474” for “MCF7”, “(8000” for “(2000”, “BT474).” for “MCF7).”

[4] = system: BT474 breast cancer cells; assay: Orthotopic breast cancer xenograft model; format: in vivo, NOD/SCID mice; settings: trastuzumab or ADC Example 1 2.5 or 5 mg/kg; NMT inhibitor 1 2 mg/kg
Method: NOD/SCID mice were implanted with estrogen pellets (17β-estradiol, 60 day release, 0.36 mg) subcutaneously in the right flank one day before the tumour inoculation. On day-8 each mouse was then inoculated in the right mammary fat pad with 1×10^7 viable BT474 breast cancer cells resuspended in 0.2 mL of Phosphate Buffered Saline mixed with matrigel (1:1). Mice were assigned to treatment groups when tumour volumes averaged 149.78 mm^3 on study day 0. […] The study was terminated on Study Day 35. […] Each group was comprised of 10 mice. Tumour volumes in mice were measured three times per week and tumour volume was calculated using the formula 0.5 (L×W^2). The mean tumour volumes (+SEM) for each study group at each measurement are shown in FIG. 1 and FIG. 2 plotted as Last Observation Carried Forward. Statistical analyses were carried out on tumour readings for Groups 1, 2, 3, 4 and 5 up to Study Day 23 (after this point >50% of the animals within one of the study groups were lost; Group 2) using two-way ANOVA, or a Mixed-Effects model was fitted when values were missing from groups (PRISM GraphPad Software Inc.). Statistical analysis of Group 6 was conducted until day 13 (at this point the study was terminated due to the significant loss of observed body weight). […]
During the study, body weights were measured three times weekly for all animals. […]

What does the source list for “trastuzumab: humanized anti-HER2 monoclonal antibody”?
TGI study day 28 ([1]; 2.5 mg/Kg IV QW × 2 weeks): 123.08%; animals with significant body weight loss (>10%) ([1]; 2.5 mg/Kg): one animal; TGI study day 28 ([1]; 5 mg/Kg IV QW × 2 weeks): 167.70%; animals with significant body weight loss (>10%) ([1]; 5 mg/Kg): one animal; tumour volumes compared to vehicle alone [1]: significant decrease; cell killing of HER2 negative MCF7 cells [2]: unable to induce cell killing; cell killing of BT474 cells [3]: ineffective at killing BT474 cells; body weights of mice compared to vehicle control [4]: did not differ significantly from the vehicle control

Which “tumour volumes compared to vehicle alone” value [1] does the source give for trastuzumab deruxtecan here?
The value was “significant decrease”.

And the “cell killing of HER2 negative MCF7 cells” value [2]?
The value was “unable to induce cell killing”.

And the “cell killing of BT474 cells” value [3]?
Its value is “effectively killed BT474 cells but was less efficacious than ADC Example 1”.
